Key:
KOP receptor [1] = target: T1, KOP receptor (Homo sapiens, UniProt P41145); assay: 35S-GTPγS coupling, inhibition; format: biochemical
KOP receptor [2] = target: T1, KOP receptor; assay: ERK 1/2 activation, inhibition; format: cell-based

Amino acid sequences for entries named in this document (tags omitted). A change or cut given only in a name is not applied to a line headed by its entry.
UniProt P41145: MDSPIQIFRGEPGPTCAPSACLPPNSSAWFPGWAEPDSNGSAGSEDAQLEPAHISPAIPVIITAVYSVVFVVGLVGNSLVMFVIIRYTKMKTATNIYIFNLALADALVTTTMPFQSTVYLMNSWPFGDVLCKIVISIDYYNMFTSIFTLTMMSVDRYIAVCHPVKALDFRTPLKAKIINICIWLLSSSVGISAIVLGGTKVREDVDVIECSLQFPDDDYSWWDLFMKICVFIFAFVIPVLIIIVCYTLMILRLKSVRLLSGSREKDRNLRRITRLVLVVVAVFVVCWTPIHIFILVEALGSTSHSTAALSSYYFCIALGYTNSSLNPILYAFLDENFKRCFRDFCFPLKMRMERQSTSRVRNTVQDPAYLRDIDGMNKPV

## Oc1ccc2c3c1O[C@H]1c4[nH]c5c(c4C[C@@]4(O)[C@@H](C2)N(CC2CC2)CC[C@]314)C[C@@]1(O)[C@H]2Cc3ccc(O)c4c3[C@@]1(CCN2CC1CC1)[C@H]5O4 [Nor-BNI, reference compound]
KOP receptor [1]
  Imax (% NBNI): 101 ± 1 % NBNI
KOP receptor [2]
  Imax (% NBNI): 100 ± 0.3 % NBNI

From patent US9345703B2, “Kappa opioid receptor effectors and uses thereof” (University of Kansas, priority 2011, dated 2016)
